# According to patent US7462730B2, “Branched ester composition” (Shell Oil Company, priority 2003, dated 2008):
# Tests used:
# [1] = room temperature; background statement; cited from earlier work
# [2] = Solubility experiments: ester mixed with solvents commonly found in personal care formulations
# [3] = 10% Ester/90% Solvent, 23.5° C.
"Solubility in Castor Oil [2, 3]","Solubility in Dimethylsiloxane [2, 3]","Solubility in Mineral Oil [2, 3]",Solubility in the nonpolar solvents ([2]; room temperature),Substance,Solubility in nonpolar solvents compared with cetearyl stearate [1]
–,–,–,–,Isocetyl stearate,more soluble
Cloudy solid,White solid,Cloudy solid,precipitates as a solid out of solution,cetearyl stearate,–
